Source: the kinase profiling compilation of Christmann-Franck et al. (2016)

By UniProt entry, the sequences of proteins in these tests, tags left out. Where a name states a change or a piece, a line headed by the entry shows the natural chain unless it says otherwise.
UniProt P49840: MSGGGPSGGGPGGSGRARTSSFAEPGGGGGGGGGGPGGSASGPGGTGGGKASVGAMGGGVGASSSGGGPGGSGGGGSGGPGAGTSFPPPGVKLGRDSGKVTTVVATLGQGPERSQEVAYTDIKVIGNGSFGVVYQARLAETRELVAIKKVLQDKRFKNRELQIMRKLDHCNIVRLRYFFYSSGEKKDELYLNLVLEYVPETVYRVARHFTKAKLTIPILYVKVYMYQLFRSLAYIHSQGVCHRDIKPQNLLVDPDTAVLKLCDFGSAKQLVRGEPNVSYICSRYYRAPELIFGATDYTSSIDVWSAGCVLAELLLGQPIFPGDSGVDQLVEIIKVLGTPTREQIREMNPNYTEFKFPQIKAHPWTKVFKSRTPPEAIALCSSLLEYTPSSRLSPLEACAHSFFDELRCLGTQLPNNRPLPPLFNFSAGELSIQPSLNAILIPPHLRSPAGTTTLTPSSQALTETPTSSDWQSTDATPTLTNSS

Biological target: GSK3A (human) (UniProt P49840)

IC50: 8.7 µM
Structure (SMILES): CN1CC[C@H](c2c(O)cc(O)c3c(=O)cc(-c4ccccc4Cl)oc23)[C@H](O)C1
